## Antibody variant affinities, Ab-91 heavy chain, assay 2

Values reported by Engelhart et al. 2022, doi:10.1038/s41597-022-01779-4 (FLAb copy).

Antigen: PDVDLGDISGINAS, a 14-residue peptide of the SARS-CoV-2 spike HR2 region.

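Phage display of a naive human antibody library on the peptide gave the parent. Variants in AAYL51 differ from the parent at up to three CDR positions; double and triple changes were sampled at random. AlphaSeq pools MATa yeast showing the antibodies with MATalpha yeast showing the peptide. The frequency of each diploid, read from paired DNA barcodes, reflects how well the two displayed proteins bind. Each replicate has its own calibration line, from reference interactions of the BCL2 family. Mating was done three times.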

Parent scFv Ab-91: VL joined to VH by three GGGGS repeats. Changes lie in the heavy chain CDRs alone.
VL: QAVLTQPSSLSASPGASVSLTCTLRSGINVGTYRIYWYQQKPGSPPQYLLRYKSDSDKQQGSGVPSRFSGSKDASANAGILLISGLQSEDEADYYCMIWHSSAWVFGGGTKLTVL
VH: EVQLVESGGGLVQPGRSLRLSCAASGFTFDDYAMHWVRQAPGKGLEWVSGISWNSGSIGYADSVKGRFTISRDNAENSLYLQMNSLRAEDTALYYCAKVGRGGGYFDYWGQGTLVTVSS

Changes read parent residue, position, new residue, counted from the first residue of the VH shown.
Affinities are written as log10 Kd with Kd in nM; a lower number is a better binder.
Averages over replicates are reported, and they cover detected replicates only.
Where no diploid with the target was found in that replicate, the entry reads "nd": below detection, most likely a poor binder, though not proof of it.
As a blank, each scFv also met three strains without target: over library AAYL51, 21% of these pairings were detected, typically at 4.54 and seldom below 3.26.

changes	log10 Kd, replicates	mean, log10 nM
I51M+F106C+Y108H	nd / nd / nd	nd
M34I+N54G	4.18 / 5.62 / 5.50	5.10
S57C+R101G+D107T	3.91 / 3.00 / nd	3.45
T28L+M34G+W53V	nd / nd / nd	nd
G56F+G104F+D107C	nd / nd / nd	nd
N54P+A61E+G104Y	4.68 / nd / 4.92	4.80
F29A+V64F	nd / nd / nd	nd
K65N+Y105Q+F106I	nd / 2.79 / nd	2.79
T28I+Y60L+Y108I	nd / nd / nd	nd
D30W+S57W+I58H	nd / nd / nd	nd
D30M+Y32V	1.24 / 1.33 / 0.73	1.10
I58N+S63A+V64M	nd / nd / nd	nd
H35N+D62Q+G102E	4.04 / nd / nd	4.04
H35T+W53F+D107I	nd / nd / nd	nd
G26N+I51G+K65Y	nd / 4.41 / nd	4.41
T28C+S57L+V64T	3.03 / nd / nd	3.03
S57Q+G59S+S63F	nd / nd / nd	nd
D31G+S55W+V64T	nd / nd / nd	nd
F27L+S52G	nd / nd / nd	nd
G50K+N54R+S57T	4.35 / nd / 3.64	3.99
S57F+G59Q+G103F	nd / 5.05 / 4.13	4.59
V99F+G104Y	nd / 2.94 / 4.33	3.63
G26R+H35V	nd / nd / nd	nd
W53L+K65N+R101K	2.02 / 2.46 / 2.13	2.20
D30A+A33W+G102R	nd / 5.54 / nd	5.54
M34N+S57G+K65W	nd / nd / nd	nd
G56A+R101H+G104L	nd / nd / nd	nd
D31S+S52V+D107F	4.40 / 4.32 / 5.23	4.65
N54R+V99Q	4.70 / 4.62 / nd	4.66
A33P+V64N+G102E	nd / nd / nd	nd
H35G+D62N+G104V	4.58 / 4.90 / 3.99	4.49
S57W+V64A+Y105C	4.15 / 5.81 / 4.82	4.93
G26C+D62T+Y105T	nd / nd / nd	nd
G50T+D62L+D107A	nd / nd / nd	nd
A33I+S57M+G103Q	nd / nd / nd	nd
Y32S+G59F+V99Y	nd / 6.00 / 4.17	5.09
M34Y+Y60V+G104R	nd / nd / nd	nd
Y32K+G50I+V64L	4.96 / nd / nd	4.96
S52L+N54C+V99A	4.34 / nd / nd	4.34
F27I+V99C+Y108T	nd / 3.81 / nd	3.81
F27T+Y60D+D107Y	nd / 3.87 / nd	3.87
M34A+G50E+W53L	nd / nd / nd	nd
G59Y+G103W	nd / 3.73 / nd	3.73
M34C+W53E+G56C	4.88 / nd / 5.39	5.14
Y32W+M34D	3.89 / nd / nd	3.89
Y32G+I58M	nd / nd / nd	nd
I58S+V99D+F106K	nd / nd / nd	nd
F29N+K65M+V99Y	nd / 4.57 / 5.00	4.78
F29Q+D30H+D107R	nd / 4.52 / nd	4.52
H35R+S55I+S57L	4.69 / nd / nd	4.69